These results are taken from ChEMBL document CHEMBL1156749 (Bioorg Med Chem Lett, 2009).

By UniProt entry, the sequences of proteins in these tests, tags left out.
UniProt Q63380, whole entry: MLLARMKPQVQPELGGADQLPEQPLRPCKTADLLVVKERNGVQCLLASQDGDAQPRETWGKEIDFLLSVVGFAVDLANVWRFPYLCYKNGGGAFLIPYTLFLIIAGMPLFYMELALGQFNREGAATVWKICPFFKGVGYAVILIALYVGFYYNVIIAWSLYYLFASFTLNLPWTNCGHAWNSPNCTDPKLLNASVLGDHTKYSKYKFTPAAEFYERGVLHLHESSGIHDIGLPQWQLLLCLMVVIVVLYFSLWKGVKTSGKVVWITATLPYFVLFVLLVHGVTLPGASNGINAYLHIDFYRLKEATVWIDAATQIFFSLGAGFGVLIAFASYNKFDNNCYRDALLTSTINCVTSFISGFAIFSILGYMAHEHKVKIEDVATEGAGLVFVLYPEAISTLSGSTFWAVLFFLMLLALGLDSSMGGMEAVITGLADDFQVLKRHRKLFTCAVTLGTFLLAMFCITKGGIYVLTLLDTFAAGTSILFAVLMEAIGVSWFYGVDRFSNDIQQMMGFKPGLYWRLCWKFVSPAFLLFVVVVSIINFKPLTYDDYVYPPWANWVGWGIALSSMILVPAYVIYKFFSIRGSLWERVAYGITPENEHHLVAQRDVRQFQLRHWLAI

The target of this assay is Transporter (Rattus norvegicus, UniProt Q63380). The assay is described as follows: Displacement of [3H]nisoxetine from NET in rat brain. The assay is classed as tissue-based. Put shortly: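 Radioligand displacement from monoamine transporters in rat brain tissue: [3H]WIN 35,428 for DAT, [3H]citalopram for SERT, [3H]nisoxetine for NET. Test agents were used as oxalate salts, and Ki was derived from displacement. Values are mean ± SEM of three experiments, each run in triplicate.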

One may read the Ki as a dissociation constant, usually derived from enzyme kinetics or from competition with a known ligand. Low values mean a stronger hold on the target, high ones a looser hold on the target. On to `COC(=O)[C@H]1[C@@H](OC(=O)c2ccccc2)C[C@@H]2CC[C@H]1N2C` [COCAINE], for which affinity was put at a Ki of 3.19 µM.
